Results taken from the kinase profiling compilation of Christmann-Franck et al. (2016).

Protein sequences, listed by entry. Tags and fused reporters are not part of them. Lines headed by an entry give the natural chain unless they say otherwise; changes in a name come on top.
UniProt Q13555: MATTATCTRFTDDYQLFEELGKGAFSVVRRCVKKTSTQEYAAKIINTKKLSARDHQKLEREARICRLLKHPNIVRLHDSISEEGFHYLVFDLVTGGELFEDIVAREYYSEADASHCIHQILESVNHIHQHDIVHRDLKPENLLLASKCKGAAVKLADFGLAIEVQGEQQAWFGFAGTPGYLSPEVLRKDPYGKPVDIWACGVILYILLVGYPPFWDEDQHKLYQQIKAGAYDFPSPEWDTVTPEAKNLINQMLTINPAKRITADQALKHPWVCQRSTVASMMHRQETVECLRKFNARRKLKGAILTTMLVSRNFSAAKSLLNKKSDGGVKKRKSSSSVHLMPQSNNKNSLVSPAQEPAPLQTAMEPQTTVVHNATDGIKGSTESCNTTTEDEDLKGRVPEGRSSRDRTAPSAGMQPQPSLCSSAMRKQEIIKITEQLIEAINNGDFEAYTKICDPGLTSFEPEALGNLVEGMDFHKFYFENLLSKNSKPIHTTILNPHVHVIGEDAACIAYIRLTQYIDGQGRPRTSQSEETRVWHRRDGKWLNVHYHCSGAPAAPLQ
UniProt Q9Y243: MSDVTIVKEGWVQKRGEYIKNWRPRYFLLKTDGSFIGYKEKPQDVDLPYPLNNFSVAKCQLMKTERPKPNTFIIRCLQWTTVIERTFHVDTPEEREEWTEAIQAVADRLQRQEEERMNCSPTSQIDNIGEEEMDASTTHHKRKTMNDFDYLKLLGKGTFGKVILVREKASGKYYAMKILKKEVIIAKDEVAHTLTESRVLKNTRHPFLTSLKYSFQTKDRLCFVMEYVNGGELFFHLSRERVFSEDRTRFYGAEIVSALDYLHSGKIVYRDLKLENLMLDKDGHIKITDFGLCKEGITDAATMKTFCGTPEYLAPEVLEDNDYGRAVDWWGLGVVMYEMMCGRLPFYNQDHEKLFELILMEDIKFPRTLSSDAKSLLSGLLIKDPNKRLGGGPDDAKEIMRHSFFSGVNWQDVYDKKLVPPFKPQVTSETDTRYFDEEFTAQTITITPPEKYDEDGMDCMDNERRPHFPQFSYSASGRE
UniProt P29322: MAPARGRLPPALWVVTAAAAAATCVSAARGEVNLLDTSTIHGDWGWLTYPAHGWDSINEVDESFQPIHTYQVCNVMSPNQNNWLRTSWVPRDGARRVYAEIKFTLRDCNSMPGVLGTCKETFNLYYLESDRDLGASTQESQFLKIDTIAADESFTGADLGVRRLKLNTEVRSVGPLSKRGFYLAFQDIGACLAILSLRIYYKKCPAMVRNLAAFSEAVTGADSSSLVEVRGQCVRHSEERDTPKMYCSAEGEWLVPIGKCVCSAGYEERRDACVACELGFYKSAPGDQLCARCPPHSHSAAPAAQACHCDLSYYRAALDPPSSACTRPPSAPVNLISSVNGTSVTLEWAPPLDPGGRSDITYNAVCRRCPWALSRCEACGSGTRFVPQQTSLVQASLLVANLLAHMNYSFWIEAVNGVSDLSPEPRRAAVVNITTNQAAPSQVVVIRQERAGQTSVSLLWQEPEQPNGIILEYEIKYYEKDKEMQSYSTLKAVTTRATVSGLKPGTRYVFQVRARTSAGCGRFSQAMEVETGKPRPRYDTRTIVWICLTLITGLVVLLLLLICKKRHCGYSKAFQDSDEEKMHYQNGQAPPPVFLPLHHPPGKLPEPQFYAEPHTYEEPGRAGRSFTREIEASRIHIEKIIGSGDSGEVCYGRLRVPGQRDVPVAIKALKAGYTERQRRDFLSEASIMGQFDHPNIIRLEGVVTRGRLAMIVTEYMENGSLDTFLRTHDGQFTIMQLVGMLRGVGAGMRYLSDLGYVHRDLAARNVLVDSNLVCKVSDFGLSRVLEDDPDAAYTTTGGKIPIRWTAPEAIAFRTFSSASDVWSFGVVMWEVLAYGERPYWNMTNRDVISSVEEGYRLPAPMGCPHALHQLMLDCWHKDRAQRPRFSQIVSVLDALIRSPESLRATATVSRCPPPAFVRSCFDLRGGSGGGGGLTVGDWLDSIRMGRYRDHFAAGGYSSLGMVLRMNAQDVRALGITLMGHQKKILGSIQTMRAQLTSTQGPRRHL
UniProt Q9Y2U5: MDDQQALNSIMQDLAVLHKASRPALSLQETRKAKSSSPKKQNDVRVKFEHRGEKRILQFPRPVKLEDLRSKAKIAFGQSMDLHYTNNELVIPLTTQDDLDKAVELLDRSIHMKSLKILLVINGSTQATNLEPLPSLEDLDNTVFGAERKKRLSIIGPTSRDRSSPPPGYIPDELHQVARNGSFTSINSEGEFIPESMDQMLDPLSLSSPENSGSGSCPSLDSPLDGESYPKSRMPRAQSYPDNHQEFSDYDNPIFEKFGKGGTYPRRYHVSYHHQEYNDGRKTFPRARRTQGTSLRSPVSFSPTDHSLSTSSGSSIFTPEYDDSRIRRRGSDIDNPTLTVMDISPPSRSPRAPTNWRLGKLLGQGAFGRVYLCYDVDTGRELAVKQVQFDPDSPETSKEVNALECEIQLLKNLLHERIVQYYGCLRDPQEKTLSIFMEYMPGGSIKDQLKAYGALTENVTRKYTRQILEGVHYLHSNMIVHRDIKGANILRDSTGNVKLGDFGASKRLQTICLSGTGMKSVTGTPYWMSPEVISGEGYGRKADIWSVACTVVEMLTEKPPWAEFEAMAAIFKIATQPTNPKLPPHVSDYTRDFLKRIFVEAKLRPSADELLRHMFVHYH
UniProt Q9H1R3: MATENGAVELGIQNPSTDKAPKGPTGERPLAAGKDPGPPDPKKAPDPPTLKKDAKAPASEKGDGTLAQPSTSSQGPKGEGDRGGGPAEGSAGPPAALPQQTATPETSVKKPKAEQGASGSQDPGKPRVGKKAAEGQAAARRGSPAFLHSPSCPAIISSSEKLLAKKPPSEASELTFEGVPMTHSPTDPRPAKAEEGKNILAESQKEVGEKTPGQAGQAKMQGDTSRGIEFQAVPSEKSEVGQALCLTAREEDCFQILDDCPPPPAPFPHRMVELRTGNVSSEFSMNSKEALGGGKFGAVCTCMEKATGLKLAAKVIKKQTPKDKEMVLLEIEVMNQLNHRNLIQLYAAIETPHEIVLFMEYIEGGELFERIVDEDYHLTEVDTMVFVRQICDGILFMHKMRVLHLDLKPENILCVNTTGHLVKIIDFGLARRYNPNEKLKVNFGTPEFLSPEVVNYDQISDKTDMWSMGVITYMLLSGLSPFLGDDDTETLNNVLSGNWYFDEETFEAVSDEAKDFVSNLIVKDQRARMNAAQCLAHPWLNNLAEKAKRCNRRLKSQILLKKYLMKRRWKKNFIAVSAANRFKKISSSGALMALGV
UniProt Q96SB4, whole entry, looked up: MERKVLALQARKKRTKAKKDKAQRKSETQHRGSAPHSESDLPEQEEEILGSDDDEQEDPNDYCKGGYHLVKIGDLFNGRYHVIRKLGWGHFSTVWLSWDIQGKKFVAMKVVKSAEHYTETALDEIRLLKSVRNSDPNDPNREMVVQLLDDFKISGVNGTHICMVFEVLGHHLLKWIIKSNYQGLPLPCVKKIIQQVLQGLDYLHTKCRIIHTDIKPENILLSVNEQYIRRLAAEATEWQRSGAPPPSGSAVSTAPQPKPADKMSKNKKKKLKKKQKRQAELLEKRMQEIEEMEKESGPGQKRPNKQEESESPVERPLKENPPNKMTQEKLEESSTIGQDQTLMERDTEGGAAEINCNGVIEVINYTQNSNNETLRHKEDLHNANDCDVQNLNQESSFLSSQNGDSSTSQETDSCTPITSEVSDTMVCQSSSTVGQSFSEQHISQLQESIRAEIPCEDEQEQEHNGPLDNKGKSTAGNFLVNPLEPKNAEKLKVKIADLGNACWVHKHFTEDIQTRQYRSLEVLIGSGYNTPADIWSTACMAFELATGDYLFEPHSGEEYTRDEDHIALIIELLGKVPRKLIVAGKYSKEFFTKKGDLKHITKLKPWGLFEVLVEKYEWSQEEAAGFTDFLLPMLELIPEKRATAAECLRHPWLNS
UniProt O94806: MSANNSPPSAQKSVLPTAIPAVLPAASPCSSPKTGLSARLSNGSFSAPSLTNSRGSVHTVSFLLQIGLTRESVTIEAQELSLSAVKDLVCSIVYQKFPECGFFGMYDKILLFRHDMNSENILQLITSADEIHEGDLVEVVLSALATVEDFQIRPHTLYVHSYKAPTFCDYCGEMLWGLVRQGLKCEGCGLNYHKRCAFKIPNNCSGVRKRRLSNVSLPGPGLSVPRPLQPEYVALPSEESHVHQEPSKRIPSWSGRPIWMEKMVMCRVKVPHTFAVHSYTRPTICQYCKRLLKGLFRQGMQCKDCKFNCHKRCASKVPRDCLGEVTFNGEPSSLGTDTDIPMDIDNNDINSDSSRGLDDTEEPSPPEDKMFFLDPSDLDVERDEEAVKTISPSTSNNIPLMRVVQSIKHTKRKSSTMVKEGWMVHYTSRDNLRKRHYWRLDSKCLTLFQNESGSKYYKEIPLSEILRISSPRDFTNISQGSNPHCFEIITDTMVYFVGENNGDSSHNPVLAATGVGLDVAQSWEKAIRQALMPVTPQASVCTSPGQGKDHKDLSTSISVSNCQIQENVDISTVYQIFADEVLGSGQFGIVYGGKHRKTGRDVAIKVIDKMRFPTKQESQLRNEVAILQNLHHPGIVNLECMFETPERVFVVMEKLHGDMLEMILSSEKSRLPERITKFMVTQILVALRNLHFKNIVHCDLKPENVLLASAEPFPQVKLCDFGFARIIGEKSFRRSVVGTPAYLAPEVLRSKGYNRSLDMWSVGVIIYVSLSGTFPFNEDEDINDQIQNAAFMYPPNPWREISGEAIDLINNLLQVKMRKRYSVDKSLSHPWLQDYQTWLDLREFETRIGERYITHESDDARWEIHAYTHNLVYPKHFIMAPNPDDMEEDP
UniProt P08631: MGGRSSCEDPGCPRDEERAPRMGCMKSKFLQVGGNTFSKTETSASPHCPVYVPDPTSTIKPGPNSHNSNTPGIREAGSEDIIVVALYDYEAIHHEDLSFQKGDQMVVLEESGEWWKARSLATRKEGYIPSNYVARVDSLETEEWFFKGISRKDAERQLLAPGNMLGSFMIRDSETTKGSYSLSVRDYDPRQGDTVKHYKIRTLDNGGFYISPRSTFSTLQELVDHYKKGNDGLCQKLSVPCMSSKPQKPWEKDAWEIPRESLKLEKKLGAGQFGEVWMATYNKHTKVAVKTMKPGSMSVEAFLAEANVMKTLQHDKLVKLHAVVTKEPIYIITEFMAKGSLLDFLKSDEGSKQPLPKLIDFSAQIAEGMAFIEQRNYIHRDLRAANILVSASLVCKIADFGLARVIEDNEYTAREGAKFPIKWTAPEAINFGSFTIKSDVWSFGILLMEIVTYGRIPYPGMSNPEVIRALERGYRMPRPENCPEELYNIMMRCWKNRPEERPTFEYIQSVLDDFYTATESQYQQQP
UniProt Q15418, whole entry, looked up: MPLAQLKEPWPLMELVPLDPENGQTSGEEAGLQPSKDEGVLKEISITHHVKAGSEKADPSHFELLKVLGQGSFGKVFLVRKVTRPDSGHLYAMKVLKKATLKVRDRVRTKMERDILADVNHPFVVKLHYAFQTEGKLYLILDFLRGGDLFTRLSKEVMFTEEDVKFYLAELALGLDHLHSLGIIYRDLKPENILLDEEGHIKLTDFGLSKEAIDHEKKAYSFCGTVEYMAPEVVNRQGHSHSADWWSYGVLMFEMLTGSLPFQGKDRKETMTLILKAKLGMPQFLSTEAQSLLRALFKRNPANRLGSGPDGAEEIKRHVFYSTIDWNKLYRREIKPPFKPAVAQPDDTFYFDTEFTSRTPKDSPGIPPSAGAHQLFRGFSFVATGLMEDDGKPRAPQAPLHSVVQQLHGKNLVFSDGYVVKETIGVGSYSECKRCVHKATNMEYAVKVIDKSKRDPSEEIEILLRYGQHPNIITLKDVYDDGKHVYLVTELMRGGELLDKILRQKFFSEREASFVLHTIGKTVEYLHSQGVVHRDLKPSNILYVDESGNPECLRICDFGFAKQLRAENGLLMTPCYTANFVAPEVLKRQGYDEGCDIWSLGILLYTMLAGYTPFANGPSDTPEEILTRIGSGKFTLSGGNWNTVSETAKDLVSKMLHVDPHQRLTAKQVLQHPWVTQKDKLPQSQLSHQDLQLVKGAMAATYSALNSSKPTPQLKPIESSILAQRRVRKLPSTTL
UniProt P41240: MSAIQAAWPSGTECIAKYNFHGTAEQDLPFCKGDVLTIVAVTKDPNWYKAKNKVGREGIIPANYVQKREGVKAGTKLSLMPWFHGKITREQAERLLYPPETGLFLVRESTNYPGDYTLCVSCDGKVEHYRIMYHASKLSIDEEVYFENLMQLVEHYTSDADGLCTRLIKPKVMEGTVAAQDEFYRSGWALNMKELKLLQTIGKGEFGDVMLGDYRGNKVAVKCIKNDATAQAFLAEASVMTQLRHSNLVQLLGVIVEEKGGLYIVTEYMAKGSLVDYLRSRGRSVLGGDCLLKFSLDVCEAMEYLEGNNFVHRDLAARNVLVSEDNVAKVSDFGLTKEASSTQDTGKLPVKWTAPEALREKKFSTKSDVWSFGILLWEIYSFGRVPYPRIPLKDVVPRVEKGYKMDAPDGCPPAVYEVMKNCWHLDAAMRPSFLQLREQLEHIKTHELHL

How the values were obtained:
Experiment in all cases: radiometric filter-binding kinase assay, Kinase HotSpot
Details in all cases: compound 0.5 µM; ATP 10 µM
[1] = molecular target: FER (human) (UniProt P16591)
[2] = molecular target: IKBKE (human) (UniProt Q14164)
[3] = molecular target: BRSK2 (human) (UniProt Q8IWQ3)
[4] = molecular target: CAMK2G (human) (UniProt Q13555)
[5] = molecular target: SRPK3 (human) (UniProt Q9UPE1)
[6] = molecular target: STK4 (human) (UniProt Q13043)
[7] = molecular target: TBK1 (human) (UniProt Q9UHD2)
[8] = molecular target: NTRK1 (human) (UniProt P04629)
[9] = molecular target: AKT3 (human) (UniProt Q9Y243)
[10] = molecular target: BTK (human) (UniProt Q06187)
[11] = molecular target: PRKCB2 (human) (UniProt P05771)
[12] = molecular target: MAP3K11 (human) (UniProt Q16584)
[13] = molecular target: EPHA8 (human) (UniProt P29322)
[14] = molecular target: PIM2 (human) (UniProt Q9P1W9)
[15] = molecular target: CSNK1E (human) (UniProt P49674)
[16] = molecular target: MAP3K2 (human) (UniProt Q9Y2U5)
[17] = molecular target: MYLK2 (human) (UniProt Q9H1R3)
[18] = molecular target: TAOK2 (human) (UniProt Q9UL54)
[19] = molecular target: NEK7 (human) (UniProt Q8TDX7)
[20] = molecular target: SRPK1 (human) (UniProt Q96SB4)
[21] = molecular target: CDC42BPA (human) (UniProt Q5VT25)
[22] = molecular target: PKN1 (human) (UniProt Q16512)
[23] = molecular target: PRKD3 (human) (UniProt O94806)
[24] = molecular target: VRK1 (human) (UniProt Q99986)
[25] = molecular target: TAOK3 (human) (UniProt Q9H2K8)
[26] = molecular target: PRKCG (human) (UniProt P05129)
[27] = molecular target: MLTK (human) (UniProt Q9NYL2)
[28] = molecular target: SRPK2 (human) (UniProt P78362)
[29] = molecular target: IGF1R (human) (UniProt P08069)
[30] = molecular target: HCK (human) (UniProt P08631)
[31] = molecular target: STK39 (human) (UniProt Q9UEW8)
[32] = molecular target: RPS6KA1 KD1 KD2 (human) (UniProt Q15418)
[33] = molecular target: DYRK3 (human) (UniProt O43781)
[34] = molecular target: PLK2 (human) (UniProt Q9NYY3)
[35] = molecular target: RIPK2 (human) (UniProt O43353)
[36] = molecular target: MAP4K5 (human) (UniProt Q9Y4K4)
[37] = molecular target: TEK (human) (UniProt Q02763)
[38] = molecular target: PRKD1 (human) (UniProt Q15139)
[39] = molecular target: CSK (human) (UniProt P41240)
[40] = molecular target: ACVRL1 (human) (UniProt P37023)
[41] = molecular target: CSNK1D (human) (UniProt P48730)
[42] = molecular target: NEK4 (human) (UniProt P51957)

Q: How did the residual activity [1] turn out when `O=C1c2ccccc2-[n+]2ccc3c([nH]c4ccccc43)c21` was run?
A: 93.9%

Q: And the residual activity [2]?
A: 104%

Q: What about the residual activity [3] of the same molecule?
A: 91.3%

Q: And the residual activity [4]?
A: 94.2%

Q: What about the residual activity [5] of the same molecule?
A: 81.9%

Q: What about the residual activity [6] of the same molecule?
A: 102%

Q: What about the residual activity [7] of the same molecule?
A: 98.9%

Q: What about the residual activity [8] of the same molecule?
A: 77.4%

Q: What about the residual activity [9] of the same molecule?
A: 101%

Q: What about the residual activity [10] of the same molecule?
A: 105%

Q: And the residual activity [11]?
A: 93.8%

Q: What about the residual activity [12] of the same molecule?
A: 82.1%

Q: What about the residual activity [13] of the same molecule?
A: 98.8%

Q: And the residual activity [14]?
A: 108%

Q: And the residual activity [15]?
A: 91.1%

Q: What about the residual activity [16] of the same molecule?
A: 105%

Q: What about the residual activity [17] of the same molecule?
A: 90.4%

Q: What about the residual activity [18] of the same molecule?
A: 99.4%

Q: And the residual activity [19]?
A: 96%

Q: What about the residual activity [20] of the same molecule?
A: 80.6%

Q: And the residual activity [21]?
A: 89.7%

Q: And the residual activity [22]?
A: 101%

Q: What about the residual activity [23] of the same molecule?
A: 97%

Q: What about the residual activity [24] of the same molecule?
A: 84.8%

Q: What about the residual activity [25] of the same molecule?
A: 100%

Q: What about the residual activity [26] of the same molecule?
A: 101%

Q: And the residual activity [27]?
A: 90.4%

Q: What about the residual activity [28] of the same molecule?
A: 82.5%

Q: What about the residual activity [29] of the same molecule?
A: 102%

Q: And the residual activity [30]?
A: 114%

Q: And the residual activity [31]?
A: 83%

Q: And the residual activity [32]?
A: 78.6%

Q: And the residual activity [33]?
A: 99%

Q: What about the residual activity [34] of the same molecule?
A: 79.9%

Q: And the residual activity [35]?
A: 99.4%

Q: And the residual activity [36]?
A: 99.5%

Q: What about the residual activity [37] of the same molecule?
A: 83.4%

Q: What about the residual activity [38] of the same molecule?
A: 99.3%

Q: What about the residual activity [39] of the same molecule?
A: 96.4%

Q: What about the residual activity [40] of the same molecule?
A: 102%

Q: And the residual activity [41]?
A: 101%

Q: And the residual activity [42]?
A: 106%

Q: How did the residual activity [1] turn out when `COc1cc(OC)c(/C=C2\C(=O)Nc3ccccc32)c(OC)c1` was run?
A: 91.5%

Q: What about the residual activity [2] of the same molecule?
A: 101%

Q: And the residual activity [3]?
A: 95.4%

Q: What about the residual activity [4] of the same molecule?
A: 86.8%

Q: What about the residual activity [5] of the same molecule?
A: 92.9%

Q: What about the residual activity [6] of the same molecule?
A: 94.4%

Q: What about the residual activity [7] of the same molecule?
A: 98.1%

Q: What about the residual activity [8] of the same molecule?
A: 93.2%

Q: What about the residual activity [9] of the same molecule?
A: 98.1%

Q: And the residual activity [10]?
A: 105%

Q: And the residual activity [11]?
A: 97.5%

Q: What about the residual activity [12] of the same molecule?
A: 89.6%

Q: And the residual activity [13]?
A: 96.8%

Q: What about the residual activity [14] of the same molecule?
A: 101%

Q: And the residual activity [15]?
A: 48.3%

Q: And the residual activity [16]?
A: 94%

Q: What about the residual activity [17] of the same molecule?
A: 95.3%

Q: What about the residual activity [18] of the same molecule?
A: 100%

Q: What about the residual activity [19] of the same molecule?
A: 106%

Q: What about the residual activity [20] of the same molecule?
A: 102%

Q: What about the residual activity [21] of the same molecule?
A: 88.7%

Q: And the residual activity [22]?
A: 101%

Q: And the residual activity [23]?
A: 94%

Q: What about the residual activity [24] of the same molecule?
A: 83.2%

Q: What about the residual activity [25] of the same molecule?
A: 98.1%

Q: And the residual activity [26]?
A: 95.4%

Q: And the residual activity [27]?
A: 93.7%

Q: And the residual activity [28]?
A: 97.6%

Q: What about the residual activity [29] of the same molecule?
A: 113%

Q: What about the residual activity [30] of the same molecule?
A: 106%

Q: And the residual activity [31]?
A: 92.6%

Q: What about the residual activity [32] of the same molecule?
A: 82.8%

Q: And the residual activity [33]?
A: 109%

Q: What about the residual activity [34] of the same molecule?
A: 110%

Q: And the residual activity [35]?
A: 89%

Q: And the residual activity [36]?
A: 104%

Q: What about the residual activity [37] of the same molecule?
A: 94.2%

Q: And the residual activity [38]?
A: 98%

Q: What about the residual activity [39] of the same molecule?
A: 98.8%

Q: And the residual activity [40]?
A: 101%

Q: And the residual activity [41]?
A: 55.5%

Q: What about the residual activity [42] of the same molecule?
A: 93.1%
